Measurements from PMC3749136.

Assays:
[1] = molecular target: GST-SOCS5-SH2 Elo B/C, O75159;Q15370;Q15369; experiment: SPR (competitive binding assay, steady-state analysis); conditions: competitor phosphopeptides 0.4–10 µM; immobilised Shc-1 pY317 peptide; parent: 0.87
GST-SOCS5-SH2 Elo B/C = GST-SOCS5-SH2 Elo B/C (UniProt O75159); experiment: SPR

Substance | Kd [1] [µM] | Kd (GST-SOCS5-SH2 Elo B/C) [µM] | also measured
EGF-R pY1092 phosphopeptide (wild type) Q(+3)A | 1.17 | – | –
EGF-R pY1092 phosphopeptide (wild type) S(+4)A | 8.05 | – | –
EGF-R pY1092 phosphopeptide (wild type) V(+5)A | 1.45 | – | –
Shc-1 pY239 phosphopeptide | – | – | fold tighter binding of Shc-1 pY317 than of this peptide (GST-SOCS5-SH2 Elo B/C): 25 fold
JAK1(pY1033) phosphopeptide | – | 17 | –
JAK2(pY1007) phosphopeptide | – | 78 | –
EGF-R pY1092 phosphopeptide (wild type) I(+1)A | 12.6 | – | –
EGF-R pY1092 phosphopeptide (wild type) N(+2)A | 13.3 | – | –

More lines, main results first:

Kd [1] [µM] | Kd (GST-SOCS5-SH2 Elo B/C) [µM] | Substance | also measured
4.52 | – | EGF-R pY1092 phosphopeptide (wild type) P(-2)A | –
– | 0.87 | EGF-R pY1092 phosphopeptide (wild type) | –
– | 0.16 | Shc-1 pY317 phosphopeptide | –
1.82 | – | EGF-R pY1092 phosphopeptide (wild type) V(-3)A | –
1.07 | – | EGF-R pY1092 phosphopeptide (wild type) E(-1)A | –
